From patent US20220265700A1, “METHODS TO PREVENT, INHIBIT OR TREAT INTERVERTEBRAL DISC DEGENERATION” (University of Iowa Research Foundation, priority 2021, published 2022)

Tests used:
nucleus pulposus cells [1] = assay: Mitochondrial ROS production, MitoSOX Red; format: cell-based, rabbit
nucleus pulposus cells [2] = assay: Mitochondrial membrane potential, JC-1 assay; format: cell-based, rabbit
nucleus pulposus cells [3] = details: pre-treated with […] Amo (and 10 mM NAC for the mixture) prior to 50 μM tBHP 1 h

SMILES: CCC1(CCC(C)C)C(=O)NC(=O)NC1=O [amobarbital]
- decrease of MitoSOX oxidation compared with tBHP (nucleus pulposus cells [1]): approximately 50%
- mitochondrial membrane potential (ratio J-aggregate/monomeric form) vs. tBHP (nucleus pulposus cells [2]): enhanced the membrane potential
- apoptotic and necrotic cells (nucleus pulposus cells [3]): approximately 8%
- live cells (nucleus pulposus cells [3]): 92.2%
